Test results reported in patent US20220194939A1, “Novel compounds and methods of use treating fructose-related disorders or diseases” (Colorado Research Partners, LLC, priority 2019, published 2022).

The chains behind the UniProt entries cited, without tags or fusion partners.
UniProt P50053, whole entry: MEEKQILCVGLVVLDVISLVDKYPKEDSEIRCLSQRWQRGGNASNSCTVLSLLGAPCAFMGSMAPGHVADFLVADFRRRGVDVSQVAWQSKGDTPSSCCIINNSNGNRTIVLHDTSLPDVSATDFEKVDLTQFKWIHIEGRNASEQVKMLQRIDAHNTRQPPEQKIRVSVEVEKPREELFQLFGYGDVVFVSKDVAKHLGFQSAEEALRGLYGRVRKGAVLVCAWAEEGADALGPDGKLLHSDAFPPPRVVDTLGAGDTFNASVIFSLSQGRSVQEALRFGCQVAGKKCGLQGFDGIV

Target: KHK (Homo sapiens, UniProt P50053)
Assay: coupled enzyme assay for KHK activity
Details: read-out: KHK, IC50; purified human recombinant KHK, PK/LDH coupled assay, A340 at 25° C., 0.1 mM ATP, 0.2 mM fructose; isoform (KHK-C or KHK-A) not given; tested form: hydrochloride
Description: Specific coupled enzyme screening assays were developed for KHK-C and KHK-A using recombinant proteins. Purified human recombinant KHK-C and KHK-A were produced using by expression in E. coli BL-21 (DE3) using IPTG induction as a His-tagged fusion proteins and purified using Ni-NTA chromatography on His-Trap FF columns. For KHK-C, the coding region from NCBI refseq number NM_006488 was inserted at the Nde I site of pET28a(+) vector, which puts it downstream from an amino-terminal (His)6 tag and a thrombin cleavage site. The same was done for KHK-A using the coding regions from NCBI refseq number NM_000221.2. The protein was expressed in BL-21 (DE3) using IPTG induction and purified using Ni-NTA (GE His Trap FF) column. The protein was washed with 100 column volumes, eluted with 3 column volumes, and dialyzed with HEPES, pH 7.4 buffers containing 20, 500, and 0 mM imidazole, respectively. The dialysate was concentrated by ultrafiltration (10kD MWCO) to >15 mg/mL protein. The protein prep was >95% pure on SDS-PAGE and the molecular weight was confirmed by relative mobility to be 33,730 Da (34,826 expected).
The assay uses the product of the KHK reaction, ADP, to drive a signal measured in real time for measuring the reaction rate. […] The disappearance of NADH is measured kinetically by monitoring A340 at 25° C. for 15 minutes. […]

How did the IC50 turn out when `Cc1cccc(-n2ncc3ccc(NC(=O)C(O)CN)cc32)c1` (stereo not shown) was run?
Its IC50 is 520 nM.
